Reported melting point values for industrial, environmental and drug-like chemicals

From the experimental data distributed with OPERA 2.9.

The melting point is given in degrees Celsius.
"n/a" marks a cell with nothing listed here.

| SMILES | name | MP (°C) |
|---|---|---|
| CS(=O)(=O)c1nn2ccccc2c1[N+](=O)[O-] | 2-(Methylsulfonyl)-3-nitropyrazolo[1,5-a]pyridine | 181 |
| CC1(c2ccncc2)NC(=O)NC1=O (stereo unspecified) | 5-Methyl-5-(pyridin-4-yl)imidazolidine-2,4-dione | 232 |
| O=C(O)C1Cc2cc(Cl)ccc2O1 (stereo unspecified) | 5-Chloro-2,3-dihydro-1-benzofuran-2-carboxylic acid | 116 |
| Cc1c(C(=O)O)sc2ncn(C)c(=O)c12 | n/a | 216 |
| O=C1CCc2cc(S(=O)(=O)Cl)ccc2N1 | 2-Oxo-1,2,3,4-tetrahydroquinoline-6-sulfonyl chloride | 206 |
| CC(C)c1ccc(C(N)=S)cc1 | 4-isopropylbenzenecarbothioamide | 149 |
| Cc1cn2[nH]c(=N)nc2nc1O | n/a | 321.3 |
| CC(=O)N1CC(=O)N2CCc3ccccc3C2C1 (stereo unspecified) | n/a | 142 |
| O=Cc1c(-c2ccccc2)nc2ccccn12 | 2-phenylimidazo[1,2-a]pyridine-3-carbaldehyde | 145 |
| O=C(O)CCCSc1ccccc1 | Butanoic acid, 4-(phenylthio)- | 67 |
| CC1(c2ccccc2)NC(=O)N(N)C1=O (stereo unspecified) | 3-amino-5-methyl-5-phenylimidazolidine-2,4-dione | 170 |
| O=Cc1cn[nH]c1-c1ccc(Cl)cc1 | 3-(4-Chlorophenyl)-1H-pyrazole-4-carbaldehyde | 140 |
| Cc1ccccc1CCNC(=O)CCl | 2-Chloro-N-[2-(2-methylphenyl)ethyl]acetamide | 69 |
| Cc1cc(Cl)n2ncnc2c1 | 5-Chloro-7-methyl[1,2,4]triazolo[1,5-a]pyridine | 94 |
| CCOc1ccc(C(C)=O)cc1OCC | 1-(3,4-diethoxyphenyl)ethanone | 50 |
| CC(=O)OC1CCC2C3CCc4cc(O)ccc4C3CCC12C (stereo unspecified) | 3-Hydroxyestra-1(10),2,4-trien-17-yl acetate | 218 |
| O=C(O)CCn1nnc2ccccc2c1=O | 3-(4-oxo-1,2,3-benzotriazin-3(4H)-yl)propanoic acid | 196 |
| O=C1COCCN1c1ccc([N+](=O)[O-])cc1 | 4-(4-nitrophenyl)morpholin-3-one | 152 |
| Nc1ccc(OCc2cccc(F)c2)c(Cl)c1 | 3-Chloro-4-[(3-fluorophenyl)methoxy]aniline | 80 |
| O=P(N1CC1)(N1CC1)N(/N=C/c1ccccc1)c1ccccc1 | TEPA,N-benzyliden-N-Ph-hydrazin1yl | 114 |
| Cc1ccc(NC(=O)CC(=N)NO)cc1 | 3-(Hydroxyamino)-3-imino-N-(4-methylphenyl)propanamide | 169 |
| O=Cc1sc(N2CCOCC2)nc1-c1ccccc1 | 2-(Morpholin-4-yl)-4-phenyl-1,3-thiazole-5-carbaldehyde | 182 |
| CC(C)(C)OC(=O)NC1(CN)CCCCCC1 | tert-Butyl [1-(aminomethyl)cycloheptyl]carbamate | 78 |
| CCCCCOc1ccc2c(oc3c(F)c(OCC)ccc32)c1F | 3-Ethoxy-4,6-difluoro-7-pentyloxy-dibenzofurane | 59.4 |
| Nc1ccccc1C(=O)NCC1CCCO1 (stereo unspecified) | 2-amino-N-(tetrahydrofuran-2-ylmethyl)benzamide | 79 |
| O=C(O)C=Cc1csc2ccccc12 | 3-(1-Benzothiophen-3-yl)prop-2-enoic acid | 226 |
| CCOc1cc(C(=O)O)c(N)cc1OC | 2-amino-5-ethoxy-4-methoxybenzoic acid | 186 |
| CC1=C(C#N)C(C)(C)CC=C1 | 1,3-Cyclohexadiene-1-carbonitrile, 2,6,6-trimethyl- | -20.4 |
| Clc1ccc(Cl)c(OCCBr)c1 | 2-(2-Bromoethoxy)-1,4-dichlorobenzene | 58 |
| Nc1nnc(-c2ccco2)s1 | 5-(Furan-2-yl)-1,3,4-thiadiazol-2-amine | 251 |
| CC(C)NC(=O)c1ccccc1N | 2-Amino-N-(1-methylethyl)benzamide | 149 |
| Cc1nc([N+](=O)[O-])cn1CCC#N | 3-(2-Methyl-4-nitro-1H-imidazol-1-yl)propanenitrile | 114.5 |
| O=Cc1cn(-c2ccccc2)nc1-c1ccc(Br)cc1 | 3-(4-Bromophenyl)-1-phenyl-1H-pyrazole-4-carbaldehyde | 142 |
| COc1ccc2c(c1)NC(=O)C2=O | 6-Methoxyisatin | 224 |
| NNC(=O)CNc1ccccc1 | 2-Anilinoacetohydrazide (non-preferred name) | 127 |
| Nc1nc(-c2ccc3c(c2)OCCO3)cs1 | 4-(2,3-Dihydro-1,4-benzodioxin-6-yl)-1,3-thiazol-2-amine | 181 |
| O=c1c(Cl)c(Cl)cnn1-c1ccc(Cl)cc1Cl | n/a | 201 |
| N#Cc1ccccc1OCC(=O)O | 2-(2-cyanophenoxy)acetic acid | 183 |
| O=C(O)c1ccccc1SCc1cccs1 | 2-[(thien-2-ylmethyl)thio]benzoic acid | 179 |
| O=C1CCCCCCCCCOCCCCCO1 | 1,7-Dioxacycloheptadecan-8-one | 34 |
| Cc1nnc(S)n1-c1ccccc1 | 3H-1,2,4-Triazole-3-thione, 2,4-dihydro-5-methyl-4-phenyl- | 225 |
| O=c1cc(-c2ccccc2)c2ccccc2[nH]1 | 3-Deoxyviridicatin | 264 |
| Cc1ccc(S(=O)(=O)Nc2ccc3nn(C4CCCC4)nc3c2)cc1 | n/a | 126 |
| Nc1ccc(CC(=O)N2CCCC2)cc1 | 2-(4-Aminophenyl)-1-(pyrrolidin-1-yl)ethan-1-one | 108 |
| CCC(=O)C(C)CO (stereo unspecified) | 3-Pentanone, 1-hydroxy-2-methyl- | -29 |
| C=C(C)C(=O)OCCOC(=O)c1c(CC(O)CCl)cccc1C(=O)O (stereo unspecified) | n/a | -39.65 |
| CC(C)(C)c1cc(CCC(=O)O)ccc1O | 3-(3-tert-Butyl-4-hydroxyphenyl)propanoic acid | 67.85 |
| C[C@@H]1C[C@H]2C3C[C@H](F)C4=CC(=O)C=CC4(C)[C@@]3(F)[C@@H](O)CC2(C)[C@@]1(O)C(=O)COC(=O)C(C)(C)C (some centres not stated) | Flumethasone pivalate | 219 |
| Cc1cc(SC#N)cc(C)c1N | 4-amino-3,5-dimethylphenyl thiocyanate | 83 |

Extract of 6 entries:

| SMILES | name | MP (°C) |
|---|---|---|
| CS(=O)(=O)c1nn2ccccc2c1[N+](=O)[O-] | 2-(Methylsulfonyl)-3-nitropyrazolo[1,5-a]pyridine | 181 |
| CCCCCOc1ccc2c(oc3c(F)c(OCC)ccc32)c1F | 3-Ethoxy-4,6-difluoro-7-pentyloxy-dibenzofurane | 59.4 |
| Nc1ccc(OCc2cccc(F)c2)c(Cl)c1 | 3-Chloro-4-[(3-fluorophenyl)methoxy]aniline | 80 |
| CC(=O)N1CC(=O)N2CCc3ccccc3C2C1 (stereo unspecified) | n/a | 142 |
| CCC(=O)C(C)CO (stereo unspecified) | 3-Pentanone, 1-hydroxy-2-methyl- | -29 |
| NNC(=O)CNc1ccccc1 | 2-Anilinoacetohydrazide (non-preferred name) | 127 |

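The numbers are reported measurements, compiled and curated for the OPERA QSAR suite. One number stands for a compound and property, with no spread given. Method and conditions are not stated for these values. The measured form (salt, isomer or mixture) is not always the one drawn. Some upstream entries may be estimates or bounds without being marked so.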